Data as given in patent EP4821921A1, “NITRIFICATION INHIBITOR AND USE THEREOF IN FERTILISERS CONTAINING AMMONIACAL NITROGEN, UREA NITROGEN OR BOTH” (dated 2026).

How the values were obtained:
[1] = tested on: Nitrosomonas europaea bacteria; experiment: in vitro nitrification inhibition assay (pH of the medium)
Description: To investigate the nitrification inhibitory capacity of pulcherriminic acid in in vitro tests with Nitrosomonas europaea bacteria, the pH generated 24 and 48 hours after the application of pulcherriminic acid is measured. The generation of nitric acid by the Nitrosomonas europaea bacteria through the nitrification process causes a decrease in pH, so if the pH is maintained it means that nitrification is not taking place or that the nitrification process is inhibited.
The same is observed when pulcherriminic acid is added at a dose of 5.9 ppm. Therefore, pulcherriminic acid inhibits the nitrifying activity of Nitrosomonas europaea bacteria at a concentration of 5.9 ppm in in vitro inhibition assays. Table 1. Results of the in vitro pulcherriminic acid inhibition assay on Nitrosomonas europaea
In addition, similar to this in vitro assay, the inhibition capacity of the nitrification process of the pulcherriminic acid precursor, in other words, L-leucine-derived cyclic dipeptide (3), was analysed. […] Table 2. Results of the in vitro inhibition test of L-leucine-derived cyclic dipeptide in Nitrosomonas europaea

soil = experiment: in vivo inhibition test in soils (soil incubation with ammonium sulphate, nitrate formation)
Description: To analyse the nitrification inhibition activity of pulcherriminic acid in soil, an incubation test was carried out at different doses of nitrogen per hectare and with different inhibitor doses. Three different doses of nitrogen in the form of ammonium sulphate were applied to the same soil type, equivalent to: 100, 200 and 300 kg N/ha. For each dose of nitrogen, different doses of pulcherriminic acid were applied as a nitrification inhibitor, as well as the following controls: nitrogen-free control, nitrogen control and nitrogen controls in the presence of a commercial inhibitor (dicyandiamide). Inhibitor percentages relate to grammes of inhibitor per 100 g of added nitrogen. […] Table 3. Results of the in vivo inhibition test in soils

[2] = tested on: Nitrosomonas europea bacteria; settings: in vitro conditions; cited from earlier work
Nitrosospira = settings: grasslands with animal urine as NH4^+ substrate; cited from earlier work
[3] = cited from earlier work
[4] = 100 kgN/ha, inhibitor 5 %, day 0
[5] = 100 kgN/ha, inhibitor 5 %, day 5
[6] = 200 kgN/ha, inhibitor 5 %, day 0
[7] = 200 kgN/ha, inhibitor 5 %, day 5
[8] = 300 kgN/ha, inhibitor 5 %, day 0
[9] = 300 kgN/ha, inhibitor 5 %, day 5

Question: With CC(C)C[C@@H]1NC(=O)[C@H](CC(C)C)NC1=O (racemic) as the compound, how does the pH ([1]; 100 ppm, Point 0 (t = 0)) read?
Answer: The pH was 7.46.

Question: And the pH ([1]; 100 ppm, Point 1 (t = 24h))?
Answer: Its pH is 5.87.

Question: What about the pH ([1]; 100 ppm, Point 2 (t = 48h)) of the same compound?
Answer: The pH was 5.73.

Question: And the pH ([1]; 200 ppm, Point 0 (t = 0))?
Answer: Its pH is 7.52.

Question: And the pH ([1]; 200 ppm, Point 1 (t = 24h))?
Answer: Its pH is 5.99.

Question: And the pH ([1]; 200 ppm, Point 2 (t = 48h))?
Answer: Its pH is 5.79.

Question: And the pH ([1]; 1,000 ppm, Point 0 (t = 0))?
Answer: The pH was 7.46.

Question: And the pH ([1]; 1,000 ppm, Point 1 (t = 24h))?
Answer: Its pH is 6.42.

Question: What about the pH ([1]; 1,000 ppm, Point 2 (t = 48h)) of the same compound?
Answer: Its pH is 5.86.

Question: What about the pH ([1]; 2,000 ppm, Point 0 (t = 0)) of the same compound?
Answer: The pH was 7.51.

Question: And the pH ([1]; 2,000 ppm, Point 1 (t = 24h))?
Answer: Its pH is 6.80.

Question: And the pH ([1]; 2,000 ppm, Point 2 (t = 48h))?
Answer: The pH was 6.03.

Question: And the “nitrifying activity of Nitrosomonas europaea bacteria” value ([1]; even at 2,000 ppm)?
Answer: Its value is “does not inhibit”.

Question: Which “mg NO3^- / kg dry soil” value (soil; [4]) does the source give for N#CNC(=N)N here?
Answer: The value was 3.87 mg NO3^- / kg dry soil.

Question: And the “mg NO3^- / kg dry soil” value (soil; [5])?
Answer: Its value is 19.41 mg NO3^- / kg dry soil.

Question: And the “mg NO3^- / kg dry soil” value (soil; [6])?
Answer: The value was 3.78 mg NO3^- / kg dry soil.

Question: And the “mg NO3^- / kg dry soil” value (soil; [7])?
Answer: The value was 19.00 mg NO3^- / kg dry soil.

Question: And the “mg NO3^- / kg dry soil” value (soil; [8])?
Answer: Its value is 6.99 mg NO3^- / kg dry soil.

Question: And the “mg NO3^- / kg dry soil” value (soil; [9])?
Answer: The value was 17.73 mg NO3^- / kg dry soil.

Question: And the “concentrations at which the production of NO2^- can be significantly reduced” value [2]?
Answer: Its value is 200-300 ppm.

Question: What about the “dose effective in inhibiting Nitrosospira activity” value (Nitrosospira) of the same compound?
Answer: Its value is 8 mg of DCD per kg of soil.

Question: For Clc1cccc(C(Cl)(Cl)Cl)n1, which solubility in water [3] is on record?
Answer: The solubility in water was “insoluble in water”.

Question: Which pH ([1]; 5.9 ppm, Point 0 (t = 0)) does the source give for CC(C)Cc1c(O)[n+]([O-])c(CC(C)C)c(O)[n+]1[O-] here?
Answer: Its pH is 7.91.

Question: What about the pH ([1]; 5.9 ppm, Point 1 (t = 24 h)) of the same compound?
Answer: Its pH is 7.97.

Question: And the pH ([1]; 5.9 ppm, Point 2 (t = 48 h))?
Answer: The pH was 7.85.

Question: And the “pH of the medium after 48 hours relative to that measured at the initial time” value ([1]; 11.8 ppm)?
Answer: The value was “does not decrease”.

Question: What about the pH ([1]; 11.8 ppm, Point 0 (t = 0)) of the same compound?
Answer: Its pH is 7.88.

Question: What about the pH ([1]; 11.8 ppm, Point 1 (t = 24 h)) of the same compound?
Answer: The pH was 7.99.

Question: And the pH ([1]; 11.8 ppm, Point 2 (t = 48 h))?
Answer: The pH was 8.05.

Question: And the “nitrifying activity of Nitrosomonas europaea bacteria” value ([1]; at a concentration of 5.9 ppm, in vitro inhibition assays)?
Answer: Its value is “inhibits”.

Question: What about the nitrification process (soil; 10 % pulcherriminic acid applied, after 5 days) of the same compound?
Answer: Its nitrification process is “totally inhibited”.

Question: What about the “mg NO3^- / kg dry soil” value (soil; 100 kgN/ha, inhibitor 2.5 % (g per 100 g added nitrogen), day 0) of the same compound?
Answer: The value was 3.82 mg NO3^- / kg dry soil.

Question: And the “mg NO3^- / kg dry soil” value (soil; 100 kgN/ha, inhibitor 2.5 %, day 5)?
Answer: Its value is 23.81 mg NO3^- / kg dry soil.

Question: And the “mg NO3^- / kg dry soil” value (soil; [4])?
Answer: Its value is 2.88 mg NO3^- / kg dry soil.

Question: And the “mg NO3^- / kg dry soil” value (soil; [5])?
Answer: The value was 23.13 mg NO3^- / kg dry soil.

Question: And the “mg NO3^- / kg dry soil” value (soil; 100 kgN/ha, inhibitor 10 %, day 0)?
Answer: The value was 3.26 mg NO3^- / kg dry soil.

Question: What about the “mg NO3^- / kg dry soil” value (soil; 100 kgN/ha, inhibitor 10 %, day 5) of the same compound?
Answer: Its value is 18.07 mg NO3^- / kg dry soil.

Question: And the “inhibitory capacity compared with dicyandiamide” value (soil; 200 and 300 kg N/ha, same inhibitor dose)?
Answer: The value was “equal to the inhibitory capacity of dicyandiamide”.

Question: And the “mg NO3^- / kg dry soil” value (soil; 200 kgN/ha, inhibitor 2.5 %, day 0)?
Answer: Its value is 3.38 mg NO3^- / kg dry soil.

Question: And the “mg NO3^- / kg dry soil” value (soil; 200 kgN/ha, inhibitor 2.5 %, day 5)?
Answer: The value was 29.83 mg NO3^- / kg dry soil.

Question: What about the “mg NO3^- / kg dry soil” value (soil; [6]) of the same compound?
Answer: The value was 3.30 mg NO3^- / kg dry soil.

Question: And the “mg NO3^- / kg dry soil” value (soil; [7])?
Answer: The value was 25.46 mg NO3^- / kg dry soil.

Question: And the “mg NO3^- / kg dry soil” value (soil; 200 kgN/ha, inhibitor 10 %, day 0)?
Answer: The value was 4.24 mg NO3^- / kg dry soil.

Question: What about the “mg NO3^- / kg dry soil” value (soil; 200 kgN/ha, inhibitor 10 %, day 5) of the same compound?
Answer: The value was 1.22 mg NO3^- / kg dry soil.

Question: What about the “mg NO3^- / kg dry soil” value (soil; 300 kgN/ha, inhibitor 2.5 %, day 0) of the same compound?
Answer: The value was 3.61 mg NO3^- / kg dry soil.

Question: And the “mg NO3^- / kg dry soil” value (soil; 300 kgN/ha, inhibitor 2.5 %, day 5)?
Answer: The value was 31.18 mg NO3^- / kg dry soil.

Question: What about the “mg NO3^- / kg dry soil” value (soil; [8]) of the same compound?
Answer: Its value is 3.02 mg NO3^- / kg dry soil.

Question: What about the “mg NO3^- / kg dry soil” value (soil; [9]) of the same compound?
Answer: The value was 17.42 mg NO3^- / kg dry soil.

Question: And the “mg NO3^- / kg dry soil” value (soil; 300 kgN/ha, inhibitor 10 %, day 0)?
Answer: The value was 3.08 mg NO3^- / kg dry soil.

Question: And the “mg NO3^- / kg dry soil” value (soil; 300 kgN/ha, inhibitor 10 %, day 5)?
Answer: The value was 5.98 mg NO3^- / kg dry soil.

Question: And the “nitrate formation compared to the nitrogen control” value (soil; at most nitrogen doses, after 5 days)?
Answer: Its value is “reduces nitrate formation”.
